For this test, the target named is PDZ1/2 domain (Homo sapiens, UniProt P78352). As to the kind of experiment: biochemical.

Amino acid sequences for entries named in this document (tags omitted). Residues count along the entry.
UniProt P78352, 61-249: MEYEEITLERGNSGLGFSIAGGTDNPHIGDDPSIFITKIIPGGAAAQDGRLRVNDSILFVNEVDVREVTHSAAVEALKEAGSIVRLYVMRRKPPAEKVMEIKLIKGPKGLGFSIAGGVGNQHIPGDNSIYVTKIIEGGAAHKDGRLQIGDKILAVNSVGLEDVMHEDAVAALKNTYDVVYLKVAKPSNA

Consider 1 compound from patent US11229675B2, “Therapeutic peptides for excitatory neurotoxicity-related injuries” (Biocells (Beijing) Biotech Co., Ltd., priority 2016, dated 2022).

By Kd is commonly meant a measure of binding affinity in units of concentration.

For `CC[C@H](C)[C@H](NC(=O)[C@H](CCC(=O)O)NC(=O)[C@@H](NC(=O)[C@H](CC(=O)O)NC(=O)[C@H](CC(C)C)NC(=O)[C@H](CC(C)C)NC(=O)[C@H](CCCCN)NC(=O)[C@H](CCC(=O)O)NC(=O)[C@H](Cc1ccc(O)cc1)NC(=O)[C@H](CCCNC(=N)N)NC(=O)[C@H](CCCNC(=N)N)NC(=O)[C@H](CCCNC(=N)N)NC(=O)[C@H](CCC(N)=O)NC(=O)[C@H](CCCNC(=N)N)NC(=O)[C@H](CCCNC(=N)N)NC(=O)[C@H](CCCCN)NC(=O)[C@H](CCCCN)NC(=O)[C@H](CCCNC(=N)N)NC(=O)CNC(=O)[C@@H](N)Cc1ccc(O)cc1)[C@@H](C)O)C(=O)O` [P5], the Kd was determined as 29.9 nM.
